The source of these data is PMC7072648, “N-(2-Hydroxyphenyl)-1-[3-(2-oxo-2,3-dihydro-1H- benzimidazol-1-yl)propyl]piperidine-4-Carboxamide (D2AAK4), a Multi-Target Ligand of Aminergic GPCRs, as a Potential Antipsychotic” (Biomolecules, 2020).

Chains of the proteins cited; added tags and fusions are not shown. Lines headed by an entry give the natural chain unless they say otherwise; changes in a name come on top.
UniProt P11229: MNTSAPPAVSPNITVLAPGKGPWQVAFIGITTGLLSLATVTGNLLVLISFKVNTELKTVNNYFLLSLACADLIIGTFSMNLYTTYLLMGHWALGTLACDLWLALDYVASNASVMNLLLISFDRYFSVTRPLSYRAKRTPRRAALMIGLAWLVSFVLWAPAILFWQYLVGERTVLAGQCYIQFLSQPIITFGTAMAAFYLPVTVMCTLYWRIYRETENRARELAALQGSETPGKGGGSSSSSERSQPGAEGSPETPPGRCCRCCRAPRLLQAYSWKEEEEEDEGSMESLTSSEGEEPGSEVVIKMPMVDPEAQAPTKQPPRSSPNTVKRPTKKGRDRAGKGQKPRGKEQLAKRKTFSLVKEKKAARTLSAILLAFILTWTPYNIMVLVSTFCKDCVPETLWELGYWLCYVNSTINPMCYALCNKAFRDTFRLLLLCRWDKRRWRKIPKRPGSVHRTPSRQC

The target of the experiment is human M1 receptor (Homo sapiens, UniProt P11229). Put plainly: Radioligand binding assay at human M1 receptor. The note with it: internal control.

Where two headings read alike, the source gives them in different places.

In the case of `CC(C)[N+]1(C)[C@@H]2CC[C@H]1C[C@@H](OC(=O)C(CO)c1ccccc1)C2` (some centres unmarked) [ipratropium], the Ki is 0.537 nM (mean ± SEM, n = 3, read-out: pKi (M1) (converted)) and 0.53 nM (read-out: average Ki (M1)).
